Results as given in patent US20240207403A1, “PERSONALIZED IMMUNOTHERAPY USING INTESTINAL METABOLITES” (Evolve Biosystems, Inc., priority 2021, published 2024).

System: naïve CD4+ T-cells
Assay: In vitro polarization of naïve CD4+ T-cells with fecal water, ILA or IFNβ, read out by targeted sc-mRNA-seq
Type: cell-based, human
Settings: Th0 cultures supplemented with IFNβ only
Text: To better understand the direct effects of bifidobacterial metabolites and enteric cytokines on T-cells, the inventors flow-sorted naïve CD4^+ T-cells from a healthy adult donor and polarized these cells using standard cytokine combinations (Cano-Gamez et al., 2020). The inventors also added fecal waters (1:100 dilution) collected from either B. infantis EVC001 supplemented or control children lacking B. infantis (FIG. 5A). To evaluate the cellular states of polarized T-cells, the inventors applied a targeted multiomics approach quantifying 259 mRNA molecules with known functions in T-cells and 10 surface proteins detected by oligo-coupled antibodies (Abseq™, Rhapsody™, BD Biosciences) (Mair et al., 2020). The UMAP embeddings of cells were largely similar across Th0, Th1 and Th2 conditions but slightly different for Th17 and iTreg states (FIG. 5B). […]
Targeted transcriptome and protein by BD Rhapsody single cell RNA Sequencing. […] Each sample was then washed twice, counted and resuspended in cold BD SampleBuffer, then calculated the cell number in each sample, then pooled the required number of cells from each sample to get approximately 20,000 cells in 620 μl for each cartridge (around 9 samples for each cartridge). […] Quality and quantity of PCR products were determined by using an Agilent 2100 Bioanalyzer and Qubit Fluorometer using the Qubit dsDNA HS Kit (ThermoFisher). […]

B1: IFNβ: interferon beta added to Th0 cultures (10 ng/ml) (protein, UniProt P01574 22-187, looked up)
Interferon beta: MSYNLLGFLQRSSNFQCQKLLWQLNGRLEYCLKDRMNFDIPEEIKQLQQFQKEDAALTIYEMLQNIFAIFRQDSSSTGWNETIVENLLANVYHQINHLKTVLEEKLEKEDFTRGKLMSSLHLKRYYGRILHYLKAKEYSHCAWTIVRVEILRNFYFINRLTGYLRN
effect on Th1/Th2 skewing of Th0 cultures: did not replicate the effect
